# What was measured:
# [1] = test system: Shigella flexneri ATCC 12022; test: MIC assay (microbroth dilution) ± 25 μM EPI
# [2] = test system: Escherichia coli 285 (AB1157, CIPR, overexpresses efflux)
# Escherichia coli 331 = test: MIC assay (microbroth dilution) ± 25 μM EPI; details: Escherichia coli, 331, read-out: MIC (μg/ml) ± EPI: None
# [3] = test system: Klebsiella pneumoniae ATCC 700603
# [4] = test system: Salmonella enterica ATCC 14028
# [5] = test system: Escherichia coli ATCC 25922; test: MIC assay (microbroth dilution) ± 25 μM EPI; details: E. coli ATCC 25922
# Escherichia coli AB1157 = details: E. coli AB1157
# [6] = test system: Escherichia coli 287 (AB1157, CIPR, overexpresses efflux)
# [7] = test system: Enterobacter aerogenes ATCC 13048
# [8] = MIC no cmpd/MIC + 25 μM MBX2319
# [9] = highest ratio of MIC (no compound)/MIC (MBX2319)
smiles,measurement,setting,value
"CO/N=C(\C(=O)N[C@@H]1C(=O)N2C(C(=O)O)=C(COC(C)=O)CS[C@H]12)c1csc(N)n1 [CEF, cefotaxime]",MIC ratio MBX2319,[1]; [8],2
same,MIC ratio PAβN,[1]; MIC no cmpd/MIC + 25 μM PAβN,1
same,MIC (μg/ml) with MBX2319 at concn (μM) of: 1.56,[2]; MBX2319 1.56 μM,0.125 µg/mL
same,MIC (μg/ml) with MBX2319 at concn (μM) of: 12.5,[2]; MBX2319 […],0.063 µg/mL
same,MIC ratios 2319,[2]; [9],8
same,MIC,Escherichia coli 331,0.125 µg/mL
same,MIC ratio MBX2319,[3]; [8],1
same,MIC ratio PAβN,[3]; MIC no cmpd/MIC + 25 μM PAβN,1
same,MIC ratio MBX2319,[4]; [8],3.4
same,MIC ratio PAβN,[4]; MIC no cmpd/MIC + 25 μM PAβN,0.7
same,MIC ratio MBX2319,[5]; [8],1.2
same,MIC ratio PAβN,[5]; MIC no cmpd/MIC + 25 μM PAβN,0.3
same,MIC ratio MBX2319,Escherichia coli AB1157; [8],4.8
same,MIC ratio PAβN,Escherichia coli AB1157; MIC no cmpd/MIC + 25 μM PAβN,0.42
same,MIC ratio MBX2319,P. aeruginosa ATCC 27853; [8],6.7
same,MIC ratio PAβN,P. aeruginosa ATCC 27853; MIC no cmpd/MIC + 25 μM PAβN,2.8
same,MIC (μg/ml) with MBX2319 at concn (μM) of: 1.56,[6]; MBX2319 1.56 μM,0.125 µg/mL
same,MIC (μg/ml) with MBX2319 at concn (μM) of: 3.13,[6]; MBX2319 3.13 μM,0.125 µg/mL
same,MIC (μg/ml) with MBX2319 at concn (μM) of: 12.5,[6]; MBX2319 […],0.063 µg/mL
same,MIC ratios 2319,[6]; [9],4
same,MIC ratio MBX2319,[7]; [8],0.8
same,MIC ratio PAβN,[7]; MIC no cmpd/MIC + 25 μM PAβN,0.3

# Reference: patent US9540389B2, “Antimicrobial potentiators” (priority 2013, dated 2017)
